Reference: ChEMBL document CHEMBL1145387, “Carbonic anhydrase activators: activation of the human isoforms VII (cytosolic) and XIV (transmembrane) with amino acids and amines” (Bioorg Med Chem Lett, 2007)

B1: Carbonic anhydrase 7 (Homo sapiens), P43166 (protein)
chain: MTGHHGWGYGQDDGPSHWHKLYPIAQGDRQSPINIISSQAVYSPSLQPLELSYEACMSLSITNNGHSVQVDFNDSDDRTVVTGGPLEGPYRLKQFHFHWGKKHDVGSEHTVDGKSFPSELHLVHWNAKKYSTFGEAASAPDGLAVVGVFLETGDEHPSMNRLTDALYMVRFKGTKAQFSCFNPKCLLPASRHYWTYPGSLTTPPLSESVTWIVLREPICISERQMGKFRSLLFTSEDDERIHMVNNFRPPQPLKGRVVKASFRA
B2: Carbonic anhydrase 14 (Homo sapiens), Q9ULX7 (protein)
chain: MLFSALLLEVIWILAADGGQHWTYEGPHGQDHWPASYPECGNNAQSPIDIQTDSVTFDPDLPALQPHGYDQPGTEPLDLHNNGHTVQLSLPSTLYLGGLPRKYVAAQLHLHWGQKGSPGGSEHQINSEATFAELHIVHYDSDSYDSLSEAAERPQGLAVLGILIEVGETKNIAYEHILSHLHEVRHKDQKTSVPPFNLRELLPKQLGQYFRYNGSLTTPPCYQSVLWTVFYRRSQISMEQLEKLQGTLFSTEEEPSKLLVQNYRALQPLNQRMVFASFIQAGSSYTTGEMLSLGVGILVGCLCLLLAVYFIARKIRKKRLENRKSVVFTSAQATTEA

Tests used:
Conditions in all cases: Homo sapiens; 10 uM
[1] = substrate: N[C@@H](Cc1ccccc1)C(=O)O
[2] = substrate: N[C@H](Cc1ccccc1)C(=O)O
[3] = substrate: N[C@@H](Cc1ccccc1)C(=O)O; remark: listed apart in the source
[4] = substrate: N[C@H](Cc1ccccc1)C(=O)O; remark: listed apart in the source

| Protein | kcat [1] | kcat [2] | kcat [3] | kcat [4] |
| --- | --- | --- | --- | --- |
| B1 | 14.6 10^5/s | 15.8 10^5/s |  |  |
| B2 |  |  | 12.5 10^5/s | 6.1 10^5/s |
